Experimental data as given in publication PMC10112521, “High-throughput AR dimerization assay identifies androgen disrupting chemicals and metabolites” (Frontiers in Toxicology, 2023).

Chains of the proteins cited; added tags and fusions are not shown. Lines headed by an entry give the natural chain unless they say otherwise; changes in a name come on top.
UniProt P10275: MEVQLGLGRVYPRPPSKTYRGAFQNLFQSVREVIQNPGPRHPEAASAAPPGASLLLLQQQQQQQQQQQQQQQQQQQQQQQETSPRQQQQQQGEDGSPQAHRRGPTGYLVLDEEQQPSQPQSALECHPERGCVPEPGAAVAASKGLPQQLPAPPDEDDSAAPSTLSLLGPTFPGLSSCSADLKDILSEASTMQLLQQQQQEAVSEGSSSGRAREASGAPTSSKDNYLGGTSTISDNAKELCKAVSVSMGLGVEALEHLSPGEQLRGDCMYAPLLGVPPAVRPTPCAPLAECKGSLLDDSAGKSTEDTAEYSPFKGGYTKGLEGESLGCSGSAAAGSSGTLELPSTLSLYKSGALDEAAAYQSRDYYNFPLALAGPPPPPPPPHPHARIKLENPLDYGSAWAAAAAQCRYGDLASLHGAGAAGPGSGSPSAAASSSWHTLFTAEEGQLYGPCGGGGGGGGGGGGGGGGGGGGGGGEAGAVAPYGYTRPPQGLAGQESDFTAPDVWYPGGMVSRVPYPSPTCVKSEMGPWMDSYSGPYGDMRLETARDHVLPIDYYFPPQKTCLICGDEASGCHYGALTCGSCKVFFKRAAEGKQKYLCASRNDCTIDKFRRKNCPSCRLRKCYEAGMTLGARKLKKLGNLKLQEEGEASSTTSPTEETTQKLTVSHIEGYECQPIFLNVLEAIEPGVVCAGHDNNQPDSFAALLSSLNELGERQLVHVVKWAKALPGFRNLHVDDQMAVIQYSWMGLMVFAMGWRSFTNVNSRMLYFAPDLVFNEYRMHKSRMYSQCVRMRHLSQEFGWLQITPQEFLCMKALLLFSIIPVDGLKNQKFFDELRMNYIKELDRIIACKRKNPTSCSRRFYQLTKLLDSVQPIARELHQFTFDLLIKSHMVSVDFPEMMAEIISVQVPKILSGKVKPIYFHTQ

Target: human AR (Homo sapiens, UniProt P10275)
Experiment: AR2 assay, antagonist mode: disruption of R1881 (10 nM)-induced AR homodimerization in HepG2-AR2 cells

## CCC(=O)O[C@H]1CC[C@H]2[C@@H]3CCC4=CC(=O)CC[C@]4(C)[C@H]3CC[C@]12C [Testosterone propionate]
  activity call in antagonist mode: false positives
